Laboratory results: patent publication WO2012175740A1

Legend:
[1] = target: human IgE (Diatec, Oslo, Norway) (human) (UniProt P01854); experiment: ELISA, competition with coated Fc(epsilon)RI for HuIgE
[2] = target: human IgE (Diatec, Oslo, Norway) (human) (UniProt P01854); experiment: cell-based or functional assay
[3] = target: human IgE (Diatec, Oslo, Norway) (human) (UniProt P01854); experiment: Alphascreen, competitor Omalizumab, biotinylated huIgE

Row | Substance | % inhibition by 500 nM [1] [%] | IC50 [1] [nM] | block of degranulation at 500 nM [2] [%] | % inhibition maximum [3] [%]
1 | omalizumab (Xolair), obtained from a commercial source (antibody) | 97.7 | 0.257 |  | 
2 | Fab obtained by papain digestion of commercially obtained omalizumab | 99.1 | 1.17 | > 95 | 96.9
